Measurements reported in patent US20060240535A1, “Carbonyl reductase from lactococcus lactis” (GEORGIA TECH RESEARCH CORPORATION, priority 2004, published 2006).

The chains behind the UniProt entries cited, without tags or fusion partners.
UniProt Q9CJ60, entry or part of it: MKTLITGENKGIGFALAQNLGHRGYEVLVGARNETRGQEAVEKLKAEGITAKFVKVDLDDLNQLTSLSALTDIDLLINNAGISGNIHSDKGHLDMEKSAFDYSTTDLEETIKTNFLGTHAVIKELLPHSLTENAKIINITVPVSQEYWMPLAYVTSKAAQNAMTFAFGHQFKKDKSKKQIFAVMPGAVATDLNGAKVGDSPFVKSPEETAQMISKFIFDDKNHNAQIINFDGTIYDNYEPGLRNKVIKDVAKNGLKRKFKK

Molecular target: carbonyl reductase from Lactococcus lactis (LL-CR) (Lactococcus lactis, UniProt Q9CJ60)
Experiment: Purified CRLL activity in aqueous-organic tunable solvents (OATS)
Format: biochemical
Details: acetonitrile, dioxane, or tetrahydrofuran
Description: As LL-CR requires organic buffers for stability, such as HEPES or triethanolamine, runs were conducted in partially organic systems using a buffer system of 200 mM NH4CHO3 and 50 mM HEPES at pH 7.0.

Substance: NADPH
- organic solvent content at which stable: ≤ 60%
